Reference: patent US20210322417A1, “GASTRIC CANCER TREATMENTS” (The Jackson Laboratory, priority 2018, published 2021)

Assays:
PTEN null OE19 cells = assay: CellTiter-Glo cell viability assay, PTEN null OE19; format: cell-based, human; details: indicated doses of the agent in combination with 0.05 μM Lapatinib, 6 days
Description: (§1) Viral particles were generated as described above.

HER2-amplified GC = HER2-amplified GC clinical trial data; cited from earlier work
CSK null OE19 cells = assay: CellTiter-Glo cell viability assay, CSK null OE19; format: cell-based, human; details: indicated doses of the agent in combination with 0.05 μM Lapatinib, 6 days
Description: as §1

## Trastuzumab
PTEN null OE19 cells
  effect on cell growth/viability: some inhibitory effect
HER2-amplified GC
  improvement of overall survival: 2.7 months
CSK null OE19 cells
  effect on cell growth/viability: some inhibitory effect
